Source: US12031087B2, “Oxygenated solvents for improved production of oil and gas” (Board of Regents, The University of Texas System, priority 2019, dated 2024)

Tests used:
[1] = Density and viscosity of 3p, 3pRB and surfactant solution; type: physicochemical; settings: 2-EH-4PO-15EO 1 wt % in RB, 347 K and atmospheric pressure
[2] = IFT between oil and stable surfactant solutions; type: physicochemical; settings: oil vs 1 wt % surfactant solution in RB, 347 K, atmospheric pressure
[3] = 1 wt % surfactant in RB, 347 K
[4] = 1.0 wt % in RB, water/oil ratio 7:3, 347 K, at least 7 days

2-ethylhexanol-4 propylene oxide-15 ethylene oxide [2-EH-4PO-15EO]
density of the surfactant solution [1]: 1039 kg/m^3
IFT (mN/m) [2]: 0.21 mN/m
stability [3]: stable
phase behavior of oil/2-EH-4PO-15EO/RB [4]: A small amount of macroemulsion was observed
